Binding of CDR-mutated scFvs to a peptide of the spike HR2 region

Binding partner: SARS-CoV-2 spike HR2 peptide, sequence PDVDLGDISGINAS.

Parent scFv Ab-14: VH joined to VL by a 15-residue (Gly4Ser)3 linker. Changes lie in the heavy chain CDRs alone.
VH: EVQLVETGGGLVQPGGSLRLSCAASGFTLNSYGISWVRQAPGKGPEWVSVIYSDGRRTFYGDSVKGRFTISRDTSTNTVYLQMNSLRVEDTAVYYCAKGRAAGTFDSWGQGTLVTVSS
VL: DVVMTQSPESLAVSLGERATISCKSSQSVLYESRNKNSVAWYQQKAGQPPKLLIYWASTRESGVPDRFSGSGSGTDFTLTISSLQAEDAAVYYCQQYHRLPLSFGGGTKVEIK

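Library AAYL49 holds single substitutions and randomly drawn double and triple substitutions in the CDRs. The scFvs were displayed on barcoded MATa yeast, the peptide on MATalpha yeast. Binding brings cells together so that they mate, and sequencing counts the barcode pairs among the diploids. The ratio of observed to expected reads was calibrated, replicate by replicate, on BCL2-family standards whose Kd was known from biolayer interferometry. Mating was done three times.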

Changes read parent residue, position, new residue, counted from the first residue of the VH shown. Affinities are written as log10 Kd with Kd in nM; a lower number is a better binder. Replicates are averaged; those with no signal do not enter the mean. "nd" means that the variant was in the library but no mating with the target was seen in that replicate; the authors take this as a sign of poor binding, and no number exists. Background: pairings of library AAYL49 with three empty control strains gave a value in 15% of cases (median 4.06, 5th percentile 2.83). Values in that range, when seen in few replicates, are hard to tell from nonspecific mating.

changes,"replicates, log10 nM",mean log10 Kd (nM)
S31N+S53A+G55S,1.93 / 2.06 / 2.55,2.18
S35E+R57M+G61I,nd / nd / 3.95,3.95
G33C+D54S+A102W,nd / nd / nd,nd
D54K+G61D+A102K,nd / nd / nd,nd
G61Y+R100A,nd / nd / nd,nd
G26M+G33T+R57D,nd / nd / nd,nd
K65F+R100M+D106A,4.08 / 4.48 / nd,4.28
V64G+A101H+G103I,nd / nd / nd,nd
V50K+I51V+F59D,nd / nd / nd,nd
S31P+D54P+F59T,nd / 3.14 / nd,3.14
G33T+F59I,nd / nd / 5.22,5.22
L29S+Y32K+S107V,4.82 / nd / nd,4.82
I34Q+R57M+A101F,nd / nd / nd,nd
K65Y+A102M+S107D,2.06 / 1.68 / 1.49,1.74
G55L+R56S+R100W,nd / nd / nd,nd
G33W+S53P+R100G,nd / 5.09 / 4.09,4.59
Y60C+A101T+F105I,nd / nd / nd,nd
V50F+F59L,nd / nd / nd,nd
D54F+A102P+G103T,4.88 / nd / nd,4.88
Y32A+G103H+T104G,2.26 / 2.33 / 2.96,2.52
G26A+G33H+G61R,nd / nd / nd,nd
F59Q+G61A+F105L,1.25 / 1.18 / 1.26,1.23
S31G+Y32N+S53Q,nd / 3.73 / nd,3.73
S53H+Y60F+F105N,nd / nd / nd,nd
N30P+I51S+S53C,5.26 / nd / nd,5.26
V50D+T58F,nd / nd / nd,nd
G55C+R57V+F59R,nd / nd / nd,nd
Y32L+F59C+G103I,nd / 2.99 / 5.77,4.38
G55T+G103K+T104F,nd / nd / nd,nd
Y52N+R57Q+A101H,nd / 4.39 / 5.33,4.86
S35F+G99A+T104W,nd / nd / nd,nd
F59Q+V64Q+G103A,nd / nd / nd,nd
S31P+K65D+F105G,nd / 2.92 / 4.10,3.51
T58P+A102F,nd / nd / nd,nd
G26Y+G61R+S107D,3.37 / 3.70 / 3.75,3.61
G61R+G99V+A101Y,1.30 / 1.56 / 1.32,1.40
G55V+Y60H+K65S,nd / nd / nd,nd

The opening 5 entries, copied out:

changes,"replicates, log10 nM",mean log10 Kd (nM)
S31N+S53A+G55S,1.93 / 2.06 / 2.55,2.18
S35E+R57M+G61I,nd / nd / 3.95,3.95
G33C+D54S+A102W,nd / nd / nd,nd
D54K+G61D+A102K,nd / nd / nd,nd
G61Y+R100A,nd / nd / nd,nd

Source: Engelhart et al. 2022 (doi:10.1038/s41597-022-01779-4), MIT Lincoln Laboratory and A-Alpha Bio; data file from the FLAb repository.